Test system: EMT-6 mammary tumors
Assay: Comparison with [18F]FLT in tumor-bearing mice
Details: [18F]FLT at 1 hr, FIG. 9 top graph

(18)F-3′-fluoro-3′-deoxy-L-thymidine [[^18F]FLT, reference compound]
uptake in tumors: high uptake in tumors
